Earlier results, collected in patent US20100092389A1 (The General Hospital Corporation, priority 2008, published 2010).
≈ marks a conversion by molar mass, not a printed value.

Conditions: cited from earlier work

CC1(C)C(/C=C/C=C/C=C/C=C2\N(CCCCS(=O)(=O)O)c3ccc4ccccc4c3C2(C)C)=[N+](CCCCS(=O)(=O)[O-])c2ccc3ccccc3c21 [ICG, Indocyanine green]
solubility in water: 1000 µg/mL (≈ 1330 µM)
